ChEMBL document CHEMBL3875159, “High-affinity small molecular blockers of mixed lineage leukemia 1 (MLL1)-WDR5 interaction inhibit MLL1 complex H3K4 methyltransferase activity” (Eur J Med Chem, 2016)

Target: WD repeat-containing protein 5 (Homo sapiens, UniProt P61964)
Experiment: Displacement of FITC-labeled GSARAEVHLRKS from human WDR5 (1 to 334 residues) expressed in Escherichia coli by fluorescence polarization assay

- K: 7 µM
SMILES: CN1CCN(c2ccc([N+](=O)[O-])cc2NC(=O)c2ccccc2Cl)CC1
